In patent US8980905B2, “Benzodioxole or benzodioxepine heterocyclic compounds as phosphodiesterase inhibitors” (Leo Pharma A/S, priority 2010, dated 2015):

Experiment: In vivo pharmacokinetic analyses in rat
Details: PO dosing 5 mg/kg of compound 101 from WO 2008/104175

COc1ccc(C(=O)Cc2c(Cl)cncc2Cl)c2c1OC1(CCOCC1)O2
Serum Cmax of the metabolite (R3=OH, compound 403): 2000 ng/mL
